Values quoted from earlier work, collected in article PMC5177531 (ACS chemical neuroscience, 2016).

System: MOR-1 variants (Oprm1)
Conditions: mouse, in vivo; cited from earlier work

Compound | MOR-1 Variants required for analgesia
CCC(=O)C(CC(C)N(C)C)(c1ccccc1)c1ccccc1 (centres unmarked) [Methadone] | 7TM
CN1CC[C@]23c4c5ccc(O)c4O[C@H]2[C@@H](O)C=C[C@H]3[C@H]1C5 [Morphine] | 7TM
